Assay results reported in article PMC9266650.
“And” between values parts separate entries of the source, which are not always exact repeats. Identical values can stand only once.

Target: fluorescein-5-maleimide (FITC)-labeled PFN1(T44C) (human) (UniProt P07737)
Assay: fluorescence polarisation

fold reduction of affinity against unmodified actin: 5.2 fold and 3.8 fold
Substance: T148-ADP-ribosylated-actin (100% TccC3-ADP-ribosylated actin) (from UniProt P68135 1-377) (natural protein)
